Measured values: patent US20240102094A1 (Amgen, published 2024)

Sequences of proteins named here, by UniProt entry; tags and fusion partners are left off. A line that says so, or that is headed by a name, gives the form on record, which may keep a tag or linker.
UniProt Q9NP99, other isoform, or with tags, fused parts or gaps limits assumed: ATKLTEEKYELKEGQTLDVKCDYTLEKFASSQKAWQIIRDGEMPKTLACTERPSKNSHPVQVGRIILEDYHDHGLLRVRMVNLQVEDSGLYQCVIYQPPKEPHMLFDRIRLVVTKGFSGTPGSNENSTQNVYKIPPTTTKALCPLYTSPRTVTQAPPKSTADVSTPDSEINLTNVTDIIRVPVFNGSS

Molecular target: T1, recombinant hTREM1:GSS:Flag:6xHis (human, UniProt Q9NP99 21-205, minimally biotinylated (0.3-0.4 biotin/mol) when immobilised on streptavidin sensors)
T1 construct: also called hTREM1-His; not shown: Flag tag
Assay: Octet (biolayer interferometry), binding signal of the His-tagged TREM protein to the antibody
Protocol: The purified hT2AB was diluted to 5 pg/ml in assay buffer (10 mM Tris, 0.13% Triton X-100, 150 mM NaCl, 1 mM CaCl2), 0.1 mg/ml BSA, pH 7.6) and captured on anti-hFc kinetic sensors (18-5090, ForteBio). Recombinant hTREM1:GSS: Flag:6×His and recombinant hTREM2:GSS:Flag:6×His were minimally biotinylated (0.3-0.4 biotin/mol) and immobilized at 70-80 nM onto high precision Streptavidin fiber optic biosensors (SAX, #18-5119) over 2000 seconds to a final loading level of ˜2 nm. Each loaded TREM2 protein was then incubated with a dilution series of hT2AB Fab protein (30, 10, 3.3 nM) for 300 seconds and then 500 seconds in buffer alone (dissociation). […] An anti-hTREM1 antibody and an isotype-matched hIgG2 control antibody were used as controls. To test the binding capacity to the hTREM2R47H mutation, bone marrow-derived macrophages (BMMs) from TREM2^CV, TREM2^R47H and Trem2^{-/-} mice were harvested on day 5 and incubated in FACS buffer (10% FCS in PBS) with hT2AB or control hIgG1 for 30 min, followed by staining with anti-hIgG Fc-PE (9040-09, SouthernBiotech). Dead cells were excluded by DAPI staining.

B1: hT2AB (fully human anti-human TREM2 agonistic monoclonal antibody, effectorless hIgG1) (antibody, V domains shown)
VH: EVQLVQSGAEVKKPGESLKISCKGSGYSFTSYWIGWVRQMPGKGLEWMGIIYPGDADARYSPSFQGQVTISADKSISTAYLQWSSLKASDTAMYFCARRRQGIFGDALDFWGQGTLVTVSS
VL: EIVMTQSPATLSVSPGERATLSCRASQSVSSNLAWFQQKPGQAPRLLIYGASTRATGIPARFSGSGSGTEFTLTISSLQPEDFAVYYCLQDNNFPPTFGQGTKVDIKR
notes: also called hT2AB IgG1; anti-human TREM2 mAb hT2AB
- binding result: no binding
